The numbers were not newly measured in US20240425630A1, “POLYMER DISPERSION COMPOSITION” (Dow Global Technologies LLC, priority 2021, published 2024), which cites them from elsewhere.

The conditions of the data set: literature data (footnotes of Table II); cited from earlier work.

Consider Glycolic acid ethoxylate lauryl ether, for which the pKaH is 4.0.

On to Glycolic acid ethoxylate oleyl ether, for which the pKaH is recorded as 3.68.
